Experimental data from US20100223737A1, “ORGANIC CATALYST WITH ENHANCED ENZYME COMPATIBLITY” (priority 2009, published 2010).

Chains of the proteins cited; added tags and fusions are not shown. Lines headed by an entry give the natural chain unless they say otherwise; changes in a name come on top.
UniProt P06278: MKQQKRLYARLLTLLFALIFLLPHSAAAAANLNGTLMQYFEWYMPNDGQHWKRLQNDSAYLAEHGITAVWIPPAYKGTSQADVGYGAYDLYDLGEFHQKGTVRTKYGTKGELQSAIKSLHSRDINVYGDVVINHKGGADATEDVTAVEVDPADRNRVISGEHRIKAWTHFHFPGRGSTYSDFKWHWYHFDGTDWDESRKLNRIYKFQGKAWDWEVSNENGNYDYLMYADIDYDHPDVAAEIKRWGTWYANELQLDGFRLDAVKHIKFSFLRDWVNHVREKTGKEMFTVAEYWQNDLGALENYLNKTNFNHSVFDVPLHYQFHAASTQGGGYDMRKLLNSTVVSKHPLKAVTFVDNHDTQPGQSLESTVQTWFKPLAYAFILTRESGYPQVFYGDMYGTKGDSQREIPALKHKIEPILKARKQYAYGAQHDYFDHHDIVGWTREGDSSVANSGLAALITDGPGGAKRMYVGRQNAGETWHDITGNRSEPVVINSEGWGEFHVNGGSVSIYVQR

Target: Termamyl (Bacillus licheniformis, UniProt P06278)
Assay: Organic Catalyst/Enzyme Compatibility Test (alpha amylase activity assay), Termamyl
Conditions: (Ac/Ab)x100; [Peracetic Acid]=5.0 ppm; [organic catalyst]=0.5 ppm; 40° C.; sample at 7 minutes 45 seconds

| Substance | Enzyme Compatibility Values ECVter |
| --- | --- |
| Sulfuric acid mono-[2-(3,4-dihydro-isoguinolin-2-yl)-1-(iso-decyloxymethyl)-ethyl]ester, internal salt | 98 |
| Sulfuric acid mono-[2-(3,4-dihydro-isoquinolin-2-yl)-1-(2-propylheptyloxymethyl)-ethyl]ester, internal salt | 98 |
| Sulfuric acid mono-[2-(3,4-dihydro-isoquinolin-2-yl)-1-(iso-nonyloxymethyl)-ethyl]ester, internal salt | 86 |
| Sulfuric acid mono-[2-(3,4-dihydro-isoquinolin-2-yl)-1-(iso-tridecyloxymethyl)-ethyl]ester, internal salt | 99 |
| Sulfuric acid mono-[2-(3,4-dihydro-isoquinolin-2-yl)-1-(2-butyloctyloxymethyl)-ethyl]ester, internal salt | 101 |
